Measured values reported in ChEMBL document CHEMBL1143050, “QSAR study on permeability of hydrophobic compounds with artificial membranes” (Bioorg Med Chem, 2007).

Columns and labels:
[1] = octanol/water

LogP [1]	Structure (SMILES)	Papp (in vitro) [×10⁻⁶ cm/s]
–	Oc1ccccc1 [PHENOL]	147
3.09	CC(CCc1ccccc1)NCC(O)c1ccc(O)c(C(N)=O)c1 (configuration not stated) [LABETALOL]	–
